Binding of CDR-mutated scFvs to a peptide of the spike HR2 region

From the AlphaSeq antibody data of Li et al. 2023 (doi:10.1038/s41467-023-39022-2), copy in the FLAb collection.

Target: peptide PDVDLGDISGINAS, taken from heptad repeat 2 (HR2) of SARS-CoV-2 spike.

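The parent was found by panning a naive human phage display library on the peptide. The variants were designed computationally from a first round of random CDR variants and then made and measured. Their group label is 14L_GP_Gibbs (GP: Gaussian process model; Gibbs: Gibbs sampling; a sequence that several methods proposed may carry one label only). AlphaSeq pools MATa yeast showing the antibodies with MATalpha yeast showing the peptide. Pairs that bind mate more often; barcode pairs of the diploids are counted by sequencing. A regression on co-assayed BCL2-family reference pairs converts the normalised counts of each replicate to an apparent Kd. Mating was done six times.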

The variants keep the heavy chain, the linker and the frameworks of Ab-14 (scFv order VH, a (GGGGS)3 linker, VL).
VH: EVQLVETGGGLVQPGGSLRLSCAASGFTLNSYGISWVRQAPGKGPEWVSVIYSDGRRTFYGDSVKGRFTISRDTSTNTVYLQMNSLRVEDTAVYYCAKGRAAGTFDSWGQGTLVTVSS
VL: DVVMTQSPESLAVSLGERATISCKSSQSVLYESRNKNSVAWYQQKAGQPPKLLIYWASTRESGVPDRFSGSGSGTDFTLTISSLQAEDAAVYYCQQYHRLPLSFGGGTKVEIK

Changes read parent residue, position, new residue, counted from the first residue of the VL shown.
The read-out is the apparent dissociation constant on a log10 scale (nM): the lower, the stronger.
Replicates are averaged; those with no signal do not enter the mean.
Of ten entries with the parent sequence, four were seen in most replicates (averages 0.34 to 2.37), three in one and three in none, so single entries are noisy.
The authors' rule: three or more of the six replicates give a measured affinity, fewer mean a poor binder.
Values of this round are not directly comparable with the first-round values of the same sequences.
Nonspecific signal, from three strains lacking the peptide, appeared in 4% of pairings of all light chain designs, centred on 2.64 (5% of these signals below 1.59); values are not corrected for it. For each scFv, signals with the empty controls are counted beside the result, with their mean in brackets.

changes	replicates, log10 nM	log10 Kd (nM), mean	signal with controls
S25F/S26Q/K36L/S38N/W56H/A57G/E61S/Q96D	-0.08 / -0.18 / 0.00 / -0.21 / -0.21 / 0.08	-0.10	0/18
S25I/V29H/K36W/S38A/W56E/T59Q/E61P	0.45 / 0.16 / 0.29 / 0.03 / 0.15 / 0.23	0.22	0/18
S25M/V29W/S33D/R34W/W56Q/T59Q/E61M	1.10 / 0.93 / 1.04 / 0.68 / 0.88 / 0.95	0.93	1/18 (2.83)
S25A/S26R/V29S/K36Q/W56N/T59Q/E61L/S62E	0.02 / -0.07 / -0.21 / -0.31 / -0.17 / -0.13	-0.15	2/18 (3.37)
S25L/Q27I/V29W/Y31M/S38Q/W56H/E61M	1.01 / 0.89 / 0.91 / 1.09 / 1.53 / 1.25	1.11	2/18 (2.70)
S25I/S26I/S28E/V29G/W56N/E61S/S62P	-0.74 / -0.36 / -0.57 / -0.93 / -0.64 / 0.06	-0.53	1/18 (2.42)
S25A/S26Q/V29E/E32G/S33E/K36S/W56H/T59L	0.53 / 0.55 / 0.48 / 0.29 / 0.53 / 0.48	0.47	0/18
S25V/Q27L/Y31L/E32W/N35T/K36A/S38A/W56E	1.11 / 1.38 / 0.78 / 1.00 / 0.73 / 1.78	1.13	0/18
S25V/S28C/V29N/L30G/N35M/W56H/T59Q	1.21 / 0.88 / 0.90 / 0.72 / 1.03 / 0.82	0.93	0/18
Q27P/V29E/L30Y/S33D/N35E/K36F/W56H/T59Q	-0.16 / 0.05 / 0.58 / 0.38 / 0.16 / 0.30	0.22	0/18
S25V/Q27W/S28L/V29W/L30P/E32W/K36W/W56N/S62Q	0.08 / 0.17 / 0.19 / -0.03 / 0.16 / 0.03	0.10	1/18 (2.47)
S26M/Q27T/V29M/L30P/W56E/S62L	0.52 / 0.31 / 0.39 / 0.07 / 0.27 / 0.28	0.31	3/18 (3.10)
S25I/Q27E/V29W/S33P/K36S/W56N/E61L/S62Q	-0.29 / -0.26 / -0.30 / -0.25 / -0.49 / -0.48	-0.34	1/18 (2.62)
S25M/V29W/K36S/W56E/E61L	0.15 / 0.28 / 0.19 / 0.08 / 0.12 / 0.32	0.19	2/18 (3.15)
S25L/S26P/Q27V/S28L/V29K/E32G/W56E	-0.25 / -0.37 / -0.44 / -0.53 / -0.42 / -0.23	-0.37	2/18 (1.66)
S25F/S28Q/N35V/W56N/T59Q/E61L	0.50 / 0.61 / 0.68 / 0.53 / 0.49 / 0.65	0.58	3/18 (3.13)
S25V/V29M/K36A/W56N/T59Q/S62E	-0.47 / -0.49 / -0.59 / -0.82 / -0.54 / -0.34	-0.54	1/18 (1.65)
S25L/S26E/Q27F/V29E/Y31E/K36P/W56S/Q96D	0.73 / 0.63 / 0.56 / 0.66 / 0.42 / 0.61	0.60	1/18 (2.58)
S25F/S26M/V29M/L30G/K36Q/W56D/E61M	-0.21 / -0.79 / -0.84 / -0.72 / -0.69 / -0.64	-0.65	0/18
S25M/V29Q/L30P/N35M/K36S/W56N/T59L/E61M	0.09 / 0.30 / 0.07 / 0.20 / 0.05 / 0.20	0.15	1/18 (2.84)
S25L/Q27G/Y31M/W56S/S58D/E61L	0.56 / 0.51 / 0.59 / 0.36 / 0.38 / 0.55	0.49	3/18 (3.60)
S25L/E32G/S33D/W56H/E61C/S103Y	0.22 / 0.27 / 0.10 / 0.07 / 0.15 / 0.22	0.17	1/18 (2.23)
S25M/L30D/Y31L/K36D/S38A/W56M/E61M/S62M	0.15 / -0.50 / -0.70 / 1.30 / -0.68 / -0.06	-0.08	0/18
S25L/S26Q/Q27G/V29M/L30P/N35M/W56Q/T59V	0.27 / 0.62 / 0.17 / 0.47 / 0.17 / 0.51	0.37	3/18 (2.22)
Q27G/L30M/Y31G/S33D/R34M/W56H/T59Q	0.30 / 0.24 / 0.37 / 0.31 / 0.40 / 0.69	0.38	0/18
S25L/S26P/Q27F/V29C/W56M/T59Q/E61C	1.38 / 1.39 / 0.99 / 1.17 / 1.16 / 1.24	1.22	2/18 (1.92)
S26Q/Q27M/V29W/L30E/K36S/W56H/S62L/S103I	1.51 / 1.21 / 1.40 / 0.95 / 1.29 / 0.98	1.22	1/18 (2.65)
S25V/S26D/V29E/L30M/Y31L/N35W/W56N/E61C	0.29 / 0.14 / 0.18 / 0.06 / 0.15 / 0.19	0.17	1/18 (2.91)
S25W/Q27F/Y31G/W56D	0.44 / 0.54 / 0.28 / 0.36 / 0.51 / 0.80	0.49	1/18 (3.19)
S25V/S26Q/Q27Y/V29M/L30E/W56E/T59D/Q96D	1.85 / 0.84 / 2.66 / 1.68 / 1.20 / 2.32	1.76	0/18
S25L/V29H/K36S/S38N/W56M/T59Y/E61M/S62D	0.38 / 0.39 / 0.37 / 0.24 / 0.21 / 0.28	0.31	2/18 (3.91)
S25L/Q27G/V29E/Y31G/W56S/S58D/E61L/S62M	0.25 / 0.39 / 0.74 / 0.22 / 0.65 / 0.43	0.44	1/18 (2.10)
S25L/Q27W/L30G/E32G/W56E/E61M/S103Y	1.86 / 1.14 / 1.63 / 0.41 / 0.99 / 1.54	1.26	0/18
S25L/S26Q/S28F/V29Y/L30E/Y31G/W56S	0.01 / -0.22 / -0.16 / -0.37 / -0.33 / -0.42	-0.25	1/18 (1.81)
K24L/S25V/S26D/V29Q/S33Q/N35M/W56S/T59L	0.90 / 0.88 / 0.73 / 0.77 / 0.86 / 0.88	0.84	3/18 (2.73)
S25L/S26D/V29H/K36W/W56N/S58N/S62E	0.28 / 0.38 / 0.33 / 0.25 / 0.00 / 0.17	0.24	0/18
S25V/Q27G/V29E/Y31E/N37G/T59K/S62E	0.65 / 0.27 / 0.24 / 0.86 / 0.28 / 0.31	0.44	0/18
S25L/S26Q/V29R/S33E/K36S/W56S/T59L	0.04 / -0.17 / -0.31 / -0.30 / -0.09 / -0.07	-0.15	0/18
S25L/L30E/Y31Q/S33E/W56H/T59Q/S62V	-0.17 / -0.30 / -0.38 / -0.38 / -0.31 / -0.11	-0.28	2/18 (2.56)
S25L/S28Q/V29D/L30E/E32Q/W56N/E61Y	-0.59 / -0.71 / -0.54 / -0.74 / -0.65 / -0.37	-0.60	0/18
S25L/V29Q/E32D/W56Q/S58H/T59H/S62V	0.56 / 0.15 / 0.27 / 0.23 / 0.47 / 0.52	0.37	4/18 (2.99)
S25L/R34T/K36S/W56D/E61Y	0.37 / 0.17 / 0.19 / 0.36 / -0.03 / 0.21	0.21	1/18 (2.33)
S25F/Q27W/V29N/L30P/W56N/H98W	0.14 / -0.26 / -0.28 / -0.26 / -0.05 / -0.05	-0.12	0/18
S25L/S26Q/V29K/L30E/N35W/K36H/W56H/T59V	0.91 / 0.63 / 0.76 / 0.72 / 1.22 / 1.00	0.87	1/18 (2.26)
S25L/L30P/S38Q/W56G/E61M	-0.04 / 0.13 / 0.20 / -0.07 / 0.14 / 0.25	0.10	0/18
S25L/S26V/V29E/N35Q/K36S/W56N/T59Y/S62E	0.17 / 0.09 / 0.23 / 0.19 / 0.10 / 0.33	0.18	0/18
S25L/S26M/Q27P/V29W/L30E/N35M/W56E/T59V/S62E	1.09 / 0.66 / 1.14 / 0.70 / 1.12 / 0.71	0.90	0/18
S25L/V29W/L30W/Y31G/S33W/W56H/S62Q/Q96D	1.44 / 1.02 / 0.97 / 1.19 / 1.57 / 1.36	1.26	1/18 (2.52)
S25L/S26M/Q27Y/L30P/W56D/E61S	0.38 / 0.26 / 0.09 / 0.34 / 0.12 / 0.15	0.22	0/18
S28Q/S33D/R34K/N35Q/K36V/W56N/T59Q/E61M	0.95 / 0.90 / 0.83 / 0.81 / 1.03 / 0.70	0.87	1/18 (2.40)
S25Y/S26Q/V29E/Y31T/W56N/Q96D/R99Q	0.05 / 0.12 / -0.21 / -0.06 / -0.06 / 0.12	-0.01	3/18 (3.44)

Repeated from above, the 6 best binders with a signal in all replicates:

| changes | replicates, log10 nM | log10 Kd (nM), mean | signal with controls |
|---|---|---|---|
| S25F/S26M/V29M/L30G/K36Q/W56D/E61M | -0.21 / -0.79 / -0.84 / -0.72 / -0.69 / -0.64 | -0.65 | 0/18 |
| S25L/S28Q/V29D/L30E/E32Q/W56N/E61Y | -0.59 / -0.71 / -0.54 / -0.74 / -0.65 / -0.37 | -0.60 | 0/18 |
| S25V/V29M/K36A/W56N/T59Q/S62E | -0.47 / -0.49 / -0.59 / -0.82 / -0.54 / -0.34 | -0.54 | 1/18 (1.65) |
| S25I/S26I/S28E/V29G/W56N/E61S/S62P | -0.74 / -0.36 / -0.57 / -0.93 / -0.64 / 0.06 | -0.53 | 1/18 (2.42) |
| S25L/S26P/Q27V/S28L/V29K/E32G/W56E | -0.25 / -0.37 / -0.44 / -0.53 / -0.42 / -0.23 | -0.37 | 2/18 (1.66) |
| S25I/Q27E/V29W/S33P/K36S/W56N/E61L/S62Q | -0.29 / -0.26 / -0.30 / -0.25 / -0.49 / -0.48 | -0.34 | 1/18 (2.62) |